Values quoted from earlier work in patent US8680142B2, “Ascorbate, vitamin K3 and hydroxytolans in the treatment of cancer” (Kent State University, priority 2007, dated 2014).

Test system: Mice
Conditions: oral 500 mg/Kg daily over 30 days; cited from earlier work

CC1=CC(=O)c2ccccc2C1=O [VK3, 2-methyl-1,4-naphthoquinone]
chronic toxicity: toxic
